Tests used:
[1] = test system: 27 gastric cancer PDXs; test: MCT of 27 gastric cancer PDXs treated with cetuximab, TGI and AUC ratio versus EGFR expression; type: in vivo, mouse; settings: the 7 PDXs with high EGFR levels (FPKM around or larger than 20); exception GA2140
Source text: The two starting tumor volumes, V0^(T) and V0^(C), need not to be the same. These two AUCs (area under curve) are illustrated in (FIG. 7A), and the AUC ratio equals kT/kc. If a study stops at different time for the two groups, dT for the drug group and dC for the vehicle group, we need to normalize the AUCs by dT^2 or dC^2. For convenience, we still call the normalized AUC as AUC, and the ratio between the two normalized AUCs as the AUC ratio:
For multiple mice in drug group (nT) and vehicle group (nC), AUCs in each group can be viewed as random samplings from corresponding normal distributions with sizeable standard deviations against the corresponding mean. The two normal distributions can differ in both mean and standard deviation. […]
We previously described a MCT study involving a cohort of 20 gastric PDXs where EGFR overexpression seems associated with positive response to cetuximab PDXs based on TGI type of response endpoint (Zhang L et al., Scientific Reports (2013) 3:2992). […] We calculated TGIs at day 14, and also AUC ratios using full set of data for all 27 PDXs. […] This analysis also supports that AUC is more robust tumor response readout over TGI in MCT and particularly for biomarker discovery. […]

[2] = test system: advanced gastric or esophagogastric junction adenocarcinoma; settings: 7 patients with IHC score greater than ˜200 receiving cetuximab in addition to chemotherapies, cited from earlier work

## cetuximab
[1]
  PDXs with tumor volume reduction under treatment: 6/7
[2]; 19 patients on chemotherapies only: 4.1±3.2 months, p-value=0.03
  PFS: 8.1±6.1 months
[2]; 19 patients on chemotherapies only: 10.1±7.8 months, p-value=0.02
  OS: 19.5±12.0 months
